Reference: patent publication US10214520B2, “Substituted azaspiro(4.5)decane derivatives” (priority 2014, dated 2019)
pKi: −log10 of the molar value.

The chains behind the UniProt entries cited, without tags or fusion partners.
UniProt P41146, whole entry: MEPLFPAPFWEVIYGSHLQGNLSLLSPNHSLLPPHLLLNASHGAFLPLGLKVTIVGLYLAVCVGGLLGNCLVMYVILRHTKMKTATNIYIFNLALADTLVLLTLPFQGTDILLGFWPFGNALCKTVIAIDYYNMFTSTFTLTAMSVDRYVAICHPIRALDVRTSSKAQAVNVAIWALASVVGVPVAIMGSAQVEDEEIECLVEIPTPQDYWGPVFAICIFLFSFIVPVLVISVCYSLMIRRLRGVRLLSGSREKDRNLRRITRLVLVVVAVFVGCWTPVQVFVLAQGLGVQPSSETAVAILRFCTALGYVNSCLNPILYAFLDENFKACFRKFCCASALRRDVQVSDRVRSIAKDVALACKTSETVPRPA
UniProt P35372, whole entry: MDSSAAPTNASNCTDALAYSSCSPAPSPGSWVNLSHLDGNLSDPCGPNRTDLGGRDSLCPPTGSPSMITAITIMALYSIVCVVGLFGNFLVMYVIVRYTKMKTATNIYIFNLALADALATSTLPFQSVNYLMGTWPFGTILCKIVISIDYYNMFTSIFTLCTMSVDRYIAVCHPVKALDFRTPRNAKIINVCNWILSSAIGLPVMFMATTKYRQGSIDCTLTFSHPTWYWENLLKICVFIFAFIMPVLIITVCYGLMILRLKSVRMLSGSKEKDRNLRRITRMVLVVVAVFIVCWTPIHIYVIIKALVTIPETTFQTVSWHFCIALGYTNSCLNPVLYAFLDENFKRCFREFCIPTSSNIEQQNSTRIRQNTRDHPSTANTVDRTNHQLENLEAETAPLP

Tests used:
ORL1 receptor = ORL1 receptor (Homo sapiens, UniProt P41146); assay: ORL1 receptor binding assay with 3H-nociceptin/orphanin FQ, membranes from recombinant CHO-ORL1 cells (WGA-SPA beads); conditions: for pKi: read-out: Ki (ORL1) mean [μm], mean; for % inhibition (ORL1) [1 μM]: test concentration 1 μM
human μ opiate receptor = human μ opiate receptor (Homo sapiens, UniProt P35372); assay: μ opiate receptor binding assay with [3H]-naloxone, membrane preparation of CHO-K1 cells (WGA-SPA beads); conditions: for pKi: read-out: Ki (μ) mean [μm], mean; for % inhibition (μ) [1 μM]: test concentration 1 μM
[1] = tested on: Female Sprague Dawley rats; assay: Analgesia in the tail flick (focal ray) test in rats, intravenous administration

SMILES	pKi (ORL1 receptor)	% inhibition (ORL1) [1 μM] (ORL1 receptor) [%]	pKi (human μ opiate receptor)	% inhibition (μ) [1 μM] (human μ opiate receptor) [%]	% inhibition (ORL1) [1 μM] (ORL1 receptor; 1 µM) [%]	% inhibition (μ) [1 μM] (human μ opiate receptor; 1 µM) [%]	Tail flick rat, i.v. % MPE (@μg/kg) ([1]; @10 μg/kg) [%@10 % MPE]	Tail flick rat, i.v. % MPE (@μg/kg) ([1]; @1000 μg/kg) [%@1000 % MPE]	Tail flick rat, i.v. % MPE (@μg/kg) ([1]; @100 μg/kg) [%@100 % MPE]
CN(C)C1(c2ccccc2)CCC2(CC1)CC(=O)N(CC(C)(C)C(N)=O)C2 (stereo not drawn)	7.52	84	7.89	96.5					
Cc1ccsc1C(=O)N1CCC2(CCC(c3cccs3)(N(C)C)CC2)C1 (stereo not drawn)	7.86	91	8.82	99.5					
CN(C)C1(c2cccs2)CCC2(CC1)CC(=O)N(Cc1ccncc1)C2 (single isomer, unassigned)	6.59	31	5.95	20.5					
CN(C)C1(Cc2ccccc2)CCC2(CCN(Cc3ccccc3)C2=O)CC1 (single isomer, unassigned) [86]			6.38		12.7	11			
CN(C)C1(Cc2ccccc2)CCC2(CCN(Cc3ccccc3)C2=O)CC1 (single isomer, unassigned) [87]	6.60		7.02		47.33	79.5			
CN(C)C1(c2cccs2)CCC2(CC1)CC(=O)N(C(=O)OC(C)(C)C)C2 (single isomer, unassigned) [90]	8.09		8.52		89	98.5			
CN(C)C1(c2cccs2)CCC2(CC1)CC(=O)N(C(=O)OC(C)(C)C)C2 (single isomer, unassigned) [91]	6.64		6.43		36	53.5			
CN(C)C1(c2cccs2)CCC2(CC1)CC(=O)N(Cc1cccs1)C2 (single isomer, unassigned) [94]	8.87		9.38		94.5	99			
CN(C)C1(c2cccs2)CCC2(CC1)CC(=O)N(Cc1cccs1)C2 (single isomer, unassigned) [95]	7.02		6.27		65	61.5			
Cc1ccc(C2(N(C)C)CCC3(CC2)CC(=O)N(Cc2ccccc2)C3)s1 (single isomer, unassigned) [98]	8.52		9.28		87	98.5			
Cc1ccc(C2(N(C)C)CCC3(CC2)CC(=O)N(Cc2ccccc2)C3)s1 (single isomer, unassigned) [99]	6.92		6.63		16	39.5			
CN(C)C1(c2ccccc2)CCC2(CC1)CC(=O)N(Cc1ccncc1)C2 (single isomer, unassigned) [103]	7.50		7.37		74.5	93	60		
CN(C)C1(c2ccccc2)CCC2(CC1)CC(=O)N(Cc1ccncc1)C2 (single isomer, unassigned) [104]	7.06		6.38		59.5	65.5			
CN(C)C1(c2ccccc2)CCC2(CC1)CC(=O)N(Cc1cccs1)C2 (single isomer, unassigned) [105]	8.66		9.18		95	100			
CN(C)C1(c2ccccc2)CCC2(CC1)CC(=O)N(Cc1cccs1)C2 (single isomer, unassigned) [106]	7.23		6.55		61	48.5			
Cc1ccc(CN2CC3(CCC(c4ccccc4)(N(C)C)CC3)CC2=O)s1 (single isomer, unassigned) [107]	8.72		9.47		97	101.5			
Cc1ccc(CN2CC3(CCC(c4ccccc4)(N(C)C)CC3)CC2=O)s1 (single isomer, unassigned) [108]	7.31		6.37		64.5	88			
CN(C)C1(c2cccs2)CCC2(CCN(Cc3ccncc3)C2)CC1 (stereo not drawn) [29]	7.84		7.52		77.5	93.5		31	
CN(C)C1(c2ccccc2)CCC2(CC1)CC(=O)N(Cc1ccccc1)C2 (stereo not drawn) [101]	8.94		9.25		95.5	96.5			100
